Test results taken from patent US20150359668A1, “LIGHT DELIVERY DEVICE AND RELATED COMPOSITIONS, METHODS AND SYSTEMS” (CALIFORNIA INSTITUTE OF TECHNOLOGY, priority 2011, published 2015).

Assays:
sclera = test system: sclera
Source text: Orbital tissues were removed with scissors to expose the sclera. […] After the contact time, the eye was removed from the drug solution, and excess solution on the sclera was dabbed away with a Kimwipe. The eye was dissected using a scalpel blade and a pair of scissors to obtain a posterior scleral section on the temporal side near the optic nerve. The tissue section was placed onto a trephine punch to cut out a 9.5-mm diameter cross-section.
Quantitative assay of the amount of drug delivered—Experiments were performed for five drug contact times (four samples each): for the cornea, tc,cornea=0.25, 0.5, 1, 2, and 4 hrs, and for the sclera, tc,sclera=0.5, 2, 4, 7.5, and 120 hrs. Each experiment was repeated four times. […]
(§1) The concentration of the drug in the extract was determined using fluorimetry. […] The fluorescence of each extract was measured and concentration was determined based on calibration curves prepared for each compound using a series of solutions with known concentrations. The extraction process was repeated using successively longer extraction times until there was no detectable fluorescence in the supernatant. […]

cornea = test system: cornea
Protocol: Siena for Medical Science supplied porcine eyes from 3-4 month old swine. Eyes were stored in ocular balanced saline solution on ice until use within 48 hours post mortem. […] The epithelial cell layer was removed by scraping with a scalpel. […] The drug solution containing the eye was gently agitated using a rocker for a specified “drug contact time” (tc,cornea ranging from 0 to 4 hours). After the drug contact time, the eye was removed from the drug solution, and excess solution on the cornea was dabbed away with a Kimwipe. The eye was dissected using a scalpel blade and a pair of scissors to cut around the corneoscleral limbus to separate out the cornea. […]
Quantitative assay of the amount of drug delivered—Experiments were performed for five drug contact times (four samples each): for the cornea, tc,cornea=0.25, 0.5, 1, 2, and 4 hrs, and for the sclera, tc,sclera=0.5, 2, 4, 7.5, and 120 hrs. […]
as §1

permeability (sclera): 0.050 μm/s
calculated permeability (cornea): 0.16 μm/s
Substance: riboflavin-5′-monophosphate
